Tested on: HCT116 cells
Settings: without CBDC004
Description: The subG1 population was determined by staining HCT116 with Krishan's solution and analyzed by flow cytometer. The dead cells were identified on the basis of DNA content, and the percentage of cells in sub G1 (% subG1) was calculated.

bleomycin [reference compound] was tested, and the “cytotoxic effect (% subG1) of anti-cancer agent alone” value was “had a cytotoxic effect on HCT116 cells”.

Reference: US7629364B2, “Compounds that abrogate DNA-damage-induced cell cycle G2 checkpoint and/or augment anti-cancer activity of DNA-damaging treatments” (Canbas Co., Ltd., priority 2002, dated 2009)
